Assay results taken from paper PMC6796883 (Cell Discovery, 2019).

Target: T1, Histone H3(1–15)K9bhb peptide (R/S racemic mixture) (UniProt P68431 2-16, β-hydroxybutyryl-lysine (Kbhb) at K9)
T1 construct: histone H3 N-terminal tail, residues 1-15; also called H3K9bhb; Kbhb; source: synthetic peptide (Beijing SciLight Biotechnology, >95% purity)
Assay: ITC; 25 °C, MicroCal PEAQ-ITC; 200 μL of 50 μM protein in the cell titrated with 17 injections of 750 μM peptide; in the absence of NAD+; one set of binding sites model
Settings: both partners purified

B1: SIRT3(118–399) V324M (domain or fragment, human, UniProt Q9NTG7 118-399, looked up)
chain: SDKGKLSLQDVAELIRARACQRVVVMVGAGISTPSGIPDFRSPGSGLYSNLQQYDLPYPEAIFELPFFFHNPKPFFTLAKELYPGNYKPNVTHYFLRLLHDKGLLLRLYTQNIDGLERVSGIPASKLVEAHGTFASATCTVCQRPFPGEDIRADVMADRVPRCPVCTGVVKPDIVFFGEPLPQRFLLHVVDFPMADLLLILGTSLEMEPFASLTEAVRSSVPRLLINRDLVGPLAWHPRSRDVAQLGDVVHGVESLVELLGWTEEMRDLVQRETGKLDGPDK
notes: also called SIRT3_(V324M); V324M mutant; not shown: 10xHIS-SUMO, N-terminal, cleaved
Kd: 664 µM
